The test system of one assay is Staphylococcus aureus. To be noted: 1.
For the next assay, the system named is Escherichia coli. To be noted: ATCC 25922.

GENTAMICIN: the MIC in the assay on Staphylococcus aureus and in the assay on Escherichia coli was 0.5 µg/mL each time.

A word on the MIC: it is the lowest concentration that inhibits growth of the organism.

Source of the values: ChEMBL document CHEMBL3860087, “New Broad-Spectrum Antibacterial Amphiphilic Aminoglycosides Active against Resistant Bacteria: From Neamine Derivatives to Smaller Neosamine Analogues” (J Med Chem, 2016).
